Source: patent US20090099157A1, “TETRAHYDRO-PYRAZOLO-PYRIDINE THIOETHER MODULATORS OF CATHEPSIN S” (priority 2007, published 2009)

Chains of the proteins cited; added tags and fusions are not shown. Residues count along the entry.
UniProt P25774, 115-331: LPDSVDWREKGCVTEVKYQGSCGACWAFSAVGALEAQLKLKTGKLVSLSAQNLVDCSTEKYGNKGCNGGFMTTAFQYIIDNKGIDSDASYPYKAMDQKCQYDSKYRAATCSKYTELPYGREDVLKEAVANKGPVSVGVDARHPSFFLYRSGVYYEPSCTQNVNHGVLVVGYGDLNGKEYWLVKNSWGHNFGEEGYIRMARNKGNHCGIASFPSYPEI

target: Recombinant human cathepsin S (CatS) (Homo sapiens, UniProt P25774); assay: biochemical

| SMILES | IC50 |
| --- | --- |
| CS(=O)(=O)N1CCc2c(c(-c3ccc(C(F)(F)F)c(SCCN4CCC(F)CC4)c3)nn2CC(O)CN2CCC(c3ccncc3)CC2)C1 (stereo not shown) [Example 726, 1-{3-[3-{[2-(4-Fluoropiperidin-1-yl)ethyl]sulfanyl}-4-(trifluoromethyl)phenyl]-5-(methylsulfonyl)-4,5,6,7-tetrahydro-1H-pyrazolo[4,3-c]pyridin-1-yl}-3-(4-pyridin-4-ylpiperidin-1-yl)propan-2-ol] | 30 nM |
| Oc1ccc(N2CCN(CC(O)Cn3nc(-c4ccc(C(F)(F)F)c(SCCN5CCC(F)(F)C5)c4)c4c3CCNC4)CC2)cc1 (stereo not shown) [Example 506, 4-[4-(3-{3-[3-{[2-(3,3-Difluoropyrrolidin-1-yl)ethyl]sulfanyl}-4-(trifluoromethyl)phenyl]-4,5,6,7-tetrahydro-1H-pyrazolo[4,3-c]pyridin-1-yl}-2-hydroxypropyl)piperazin-1-yl]phenol] | 880 nM |
| CS(=O)(=O)N1CCc2c(c(-c3ccc(C(F)(F)F)c(SCC(=O)NC4CCCC4)c3)nn2CC(O)CN2CCC(N3CCOCC3)CC2)C1 (stereo not shown) [Example 754, N-Cyclopentyl-2-{[5-{1-[2-hydroxy-3-(4-morpholin-4-ylpiperidin-1-yl)propyl]-5-(methylsulfonyl)-4,5,6,7-tetrahydro-1H-pyrazolo[4,3-c]pyridin-3-yl}-2-(trifluoromethyl)phenyl]sulfanyl}acetamide] | 510 nM |
| CC(CCc1ccccc1)NCCSc1cc(-c2nn(CCCN3CCC(N4CCCC4=O)CC3)c3c2CN(S(C)(=O)=O)CC3)ccc1C(F)(F)F (stereo not shown) [Example 853, 1-[1-(3-{3-[3-({2-[(1-Methyl-3-phenylpropyl)amino]ethyl}sulfanyl)-4-(trifluoromethyl)phenyl]-5-(methylsulfonyl)-4,5,6,7-tetrahydro-1H-pyrazolo[4,3-c]pyridin-1-yl}propyl)piperidin-4-yl]pyrrolidin-2-one] | 1430 nM |
| CC(=O)N1CCN(CC(O)Cn2nc(-c3ccc(C(F)(F)F)c(SCCN4CCCCC4)c3)c3c2CCNC3)CC1 (stereo not shown) [Example 308, 1-(4-Acetylpiperazin-1-yl)-3-(3-{3-[(2-piperidin-1-ylethyl)sulfanyl]-4-(trifluoromethyl)phenyl}-4,5,6,7-tetrahydro-1H-pyrazolo[4,3-c]pyridin-1-yl)propan-2-ol] | > 20000 nM |
| CC(=O)NCC1CCN(CC(O)Cn2nc(-c3ccc(C(F)(F)F)c(SCCN4CCCC4)c3)c3c2CCN(S(C)(=O)=O)C3)CC1 (stereo not shown) [Example 596, N-[(1-{2-Hydroxy-3-[5-(methylsulfonyl)-3-{3-[(2-pyrrolidin-1-ylethyl)sulfanyl]-4-(trifluoromethyl)phenyl}-4,5,6,7-tetrahydro-1H-pyrazolo[4,3-c]pyridin-1-yl]propyl}piperidin-4-yl)methyl]acetamide] | 590 nM |
| CC(C)(C)OC(=O)NC1(C(=O)N2CCc3c(c(-c4ccc(C(F)(F)F)c(SCCN5CCC(F)CC5)c4)nn3CC(O)CN3CCCCC3)C2)CC1 (stereo not shown) [Example 837, 1,1-Dimethylethyl [1-({3-[3-{[2-(4-fluoropiperidin-1-yl)ethyl]sulfanyl}-4-(trifluoromethyl)phenyl]-1-(2-hydroxy-3-piperidin-1-ylpropyl)-1,4,6,7-tetrahydro-5H-pyrazolo[4,3-c]pyridin-5-yl}carbonyl)cyclopropyl]carbamate] | 650 nM |
| NC(=O)C(=O)N1CCc2c(c(-c3ccc(C(F)(F)F)c(SCCN4CCC(F)CC4)c3)nn2C[C@@H](O)CN2CCCCC2)C1 [Example 250, 2-{3-[3-{[2-(4-Fluoropiperidin-1-yl)ethyl]sulfanyl}-4-(trifluoromethyl)phenyl]-1-[(2S)-2-hydroxy-3-piperidin-1-ylpropyl]-1,4,6,7-tetrahydro-5H-pyrazolo[4,3-c]pyridin-5-yl}-2-oxoacetamide] | 50 nM |
| CC(=O)N1CCN(CCSc2cc(-c3nn(CC(O)CN4CCCC4)c4c3CN(S(C)(=O)=O)CC4)ccc2C(F)(F)F)CC1 (stereo not shown) [Example 448, 1-{3-[3-{[2-(4-Acetylpiperazin-1-yl)ethyl]sulfanyl}-4-(trifluoromethyl)phenyl]-5-(methylsulfonyl)-4,5,6,7-tetrahydro-1H-pyrazolo[4,3-c]pyridin-1-yl}-3-pyrrolidin-1-ylpropan-2-ol] | 1400 nM |
| CS(=O)(=O)N1CCc2c(c(-c3ccc(C(F)(F)F)c(SCCN4CCOCC4)c3)nn2CC(O)CN2CCN(c3ncccn3)CC2)C1 (stereo not shown) [Example 673] | 140 nM |
| CS(=O)(=O)N1CCc2c(c(-c3ccc(C(F)(F)F)c(SCCN4CCCCC4)c3)nn2CC(O)CN2CCCC2C(=O)O)C1 (stereo not shown) [Example 455, 1-{2-Hydroxy-3-[5-(methylsulfonyl)-3-{3-[(2-piperidin-1-ylethyl)sulfanyl]-4-(trifluoromethyl)phenyl}-4,5,6,7-tetrahydro-1H-pyrazolo[4,3-c]pyridin-1-yl]propyl}praline] | 1030 nM |
| CN1CCN(CCSc2cc(-c3nn(CCCN4CCC(N5CCCC5=O)CC4)c4c3CN(S(C)(=O)=O)CC4)ccc2C(F)(F)F)CC1 [Example 32, 1-{1-[3-(5-Methanesulfonyl-3-{3-[2-(4-methyl-piperazin-1-yl)-ethylsulfanyl]-4-trifluoromethyl-phenyl}-4,5,6,7-tetrahydro-pyrazolo[4,3-c]pyridin-1-yl)-propyl]-piperidin-4-yl}-pyrrolidin-2-one] | 1060 nM |
| CS(=O)(=O)N1CCc2c(c(-c3ccc(C(F)(F)F)c(SCCN4CCCCC4)c3)nn2CC(O)CN2CCC(c3n[nH]c(=O)[nH]3)CC2)C1 (stereo not shown) [Example 677, 5-(1-{2-Hydroxy-3-[5-(methylsulfonyl)-3-{3-[(2-piperidin-1-ylethyl)sulfanyl]-4-(trifluoromethyl)phenyl}-4,5,6,7-tetrahydro-1H-pyrazolo[4,3-c]pyridin-1-yl]propyl}piperidin-4-yl)-2,4-dihydro-3H-1,2,4-triazol-3-one] | 90 nM |
| CS(=O)(=O)N1CCc2c(c(-c3ccc(C(F)(F)F)c(SCC(=O)N4CCOCC4)c3)nn2CC(O)CN2CCN(c3ccccc3F)CC2)C1 (stereo not shown) [Example 790, 1-[4-(2-Fluorophenyl)piperazin-1-yl]-3-[5-(methylsulfonyl)-3-{3-[(2-morpholin-4-yl-2-oxoethyl)sulfanyl]-4-(trifluoromethyl)phenyl}-4,5,6,7-tetrahydro-1H-pyrazolo[4,3-c]pyridin-1-yl]propan-2-ol] | 10 nM |
| CC(=O)NCC1CCN(CC(O)Cn2nc(-c3ccc(C(F)(F)F)c(SCCN4CCOCC4)c3)c3c2CCN(S(C)(=O)=O)C3)CC1 (stereo not shown) [Example 650, N-[(1-{2-Hydroxy-3-[5-(methylsulfonyl)-3-{3-[(2-morpholin-4-ylethyl)sulfanyl]-4-(trifluoromethyl)phenyl}-4,5,6,7-tetrahydro-1H-pyrazolo[4,3-c]pyridin-1-yl]propyl}piperidin-4-yl)methyl]acetamide] | 430 nM |
| CS(=O)(=O)NCCSc1cc(-c2nn(CC(O)CN3CCC(N4CCCC4)CC3)c3c2CN(S(C)(=O)=O)CC3)ccc1C(F)(F)F (stereo not shown) [Example 666, N-(2-{[5-{1-[2-Hydroxy-3-(4-pyrrolidin-1-ylpiperidin-1-yl)propyl]-5-(methylsulfonyl)-4,5,6,7-tetrahydro-1H-pyrazolo[4,3-c]pyridin-3-yl}-2-(trifluoromethyl)phenyl]sulfanyl}ethyl)methanesulfonamide] | 480 nM |
| CC(=O)N1CCN(CCSc2cc(-c3nn(CC(O)CN4CCC(N5CCCC5=O)CC4)c4c3CN(S(C)(=O)=O)CC4)ccc2C(F)(F)F)CC1 (stereo not shown) [Example 845, 1-[1-(3-{3-[3-{[2-(4-Acetylpiperazin-1-yl)ethyl]sulfanyl}-4-(trifluoromethyl)phenyl]-5-(methylsulfonyl)-4,5,6,7-tetrahydro-1H-pyrazolo[4,3-c]pyridin-1-yl}-2-hydroxypropyl)piperidin-4-yl]pyrrolidin-2-one] | 190 nM |
| CS(=O)(=O)N1CCc2c(c(-c3ccc(C(F)(F)F)c(SCC(=O)N4CCOCC4)c3)nn2CC(O)CN2CCC(C(=O)N3CCCC3)CC2)C1 (stereo not shown) [Example 262, 1-[5-(Methylsulfonyl)-3-{3-[(2-morpholin-4-yl-2-oxoethyl)sulfanyl]-4-(trifluoromethyl)phenyl}-4,5,6,7-tetrahydro-1H-pyrazolo[4,3-c]pyridin-1-yl]-3-[4-(pyrrolidin-1-ylcarbonyl)piperidin-1-yl]propan-2-ol] | 40 nM |
| CC(C)(C)OC(=O)NC1CCN(CCSc2cc(-c3nn(CCCN4CCC(N5CCCC5=O)CC4)c4c3CN(S(C)(=O)=O)CC4)ccc2C(F)(F)F)CC1 [Example 891, 1,1-Dimethylethyl {1-[2-({5-[5-(methylsulfonyl)-1-{3-[4-(2-oxopyrrolidin-1-yl)piperidin-1-yl]propyl}-4,5,6,7-tetrahydro-1H-pyrazolo[4,3-c]pyridin-3-yl]-2-(trifluoromethyl)phenyl}sulfanyl)ethyl]piperidin-4-yl}carbamate] | 590 nM |
| CS(=O)(=O)N1CCc2c(c(-c3ccc(C(F)(F)F)c(SCCN4CCCC(F)C4)c3)nn2C[C@@H](O)CN2CCC(C3CCCCC3)CC2)C1 (stereo partly drawn) [Example 757, (2S)-1-(4-Cyclohexylpiperidin-1-yl)-3-{3-[3-{[2-(3-fluoropiperidin-1-yl)ethyl]sulfanyl}-4-(trifluoromethyl)phenyl]-5-(methylsulfonyl)-4,5,6,7-tetrahydro-1H-pyrazolo[4,3-c]pyridin-1-yl}propan-2-ol] | 15 nM |
| CS(=O)(=O)N1CCc2c(c(-c3ccc(C(F)(F)F)c(SCCN4CCc5ccccc5C4)c3)nn2CCCN2CCC(N3CCCC3=O)CC2)C1 [Example 44, 1-{1-[3-(3-{3-[2-(3,4-Dihydro-1H-isoquinolin-2-yl)-ethylsulfanyl]-4-trifluoromethyl-phenyl}-5-methanesulfonyl-4,5,6,7-tetrahydro-pyrazolo[4,3-c]pyridin-1-yl)-propyl]-piperidin-4-yl}-pyrrolidin-2-one] | 500 nM |
| CS(=O)(=O)N1CCc2c(c(-c3ccc(C(F)(F)F)c(SCCN4CCC5CCCCC5C4)c3)nn2C[C@@H](O)CN2CCOCC2)C1 (stereo partly drawn) [Example 594, (2S)-1-{5-(Methylsulfonyl)-3-[3-{[2-(octahydroisoquinolin-2(1H)-yl)ethyl]sulfanyl}-4-(trifluoromethyl)phenyl]-4,5,6,7-tetrahydro-1H-pyrazolo[4,3-c]pyridin-1-yl}-3-morpholin-4-ylpropan-2-ol] | 200 nM |
